Laboratory results published in patent US9226916B2, “Pyrrolidine derivatives” (HOFFMANN-LA ROCHE INC., priority 2009, dated 2016).

Sequences of proteins named here, by UniProt entry; tags and fusion partners are left off.
UniProt P29371, whole entry, looked up: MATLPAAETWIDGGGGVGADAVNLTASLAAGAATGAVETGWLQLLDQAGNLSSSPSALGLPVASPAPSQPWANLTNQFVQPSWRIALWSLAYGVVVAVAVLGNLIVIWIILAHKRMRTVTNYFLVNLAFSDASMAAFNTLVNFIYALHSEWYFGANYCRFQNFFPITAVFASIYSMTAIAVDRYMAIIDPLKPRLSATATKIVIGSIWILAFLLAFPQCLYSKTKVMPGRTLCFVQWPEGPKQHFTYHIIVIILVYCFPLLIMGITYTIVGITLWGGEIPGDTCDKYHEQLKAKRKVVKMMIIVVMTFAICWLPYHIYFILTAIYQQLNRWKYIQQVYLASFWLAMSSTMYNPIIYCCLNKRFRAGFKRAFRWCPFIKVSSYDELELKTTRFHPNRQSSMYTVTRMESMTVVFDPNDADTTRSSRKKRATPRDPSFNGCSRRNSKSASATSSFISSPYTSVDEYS

target: recombinant human NK3 receptor (Homo sapiens, UniProt P29371); assay: [3H]SR142801 competition binding assay; conditions: read-out: Data Ki, hNK-3 receptor affinity, membranes from HEK293 cells transiently expressing recombinant human NK3 receptor, Cheng-Prussoff

Row | SMILES | Ki [nM]
1 | Cc1ccc(OC(=O)N(C)[C@@H]2CN(C(=O)C3CCN(C(=O)C4(C)CC4)CC3)C[C@H]2c2ccc(Cl)c(Cl)c2)cn1 | 8.4
2 | CN(C(=O)Oc1ccc(Cl)nc1)[C@@H]1CN(C(=O)C2CCN(C(=O)C3(C)CC3)CC2)C[C@H]1c1ccc(Cl)c(Cl)c1 | 0.8
3 | CN(C(=O)Oc1ccc(C(F)(F)F)nc1)[C@@H]1CN(C(=O)C2CCN(C(=O)C3(C)CC3)CC2)C[C@H]1c1ccc(Cl)c(Cl)c1 | 2.6
4 | CN(C(=O)Oc1cccnc1C#N)[C@@H]1CN(C(=O)C2CCN(C(=O)C3(C)CC3)CC2)C[C@H]1c1ccc(Cl)c(Cl)c1 | 211
5 | CN(C(=O)Oc1ccc(Cl)nc1)[C@H]1CN(C(=O)C2CCN(C(=O)C3(C)CC3)CC2)C[C@@H]1c1ccc(Cl)c(Cl)c1 (racemic) | 3.4
6 | CN(C(=O)Oc1ccc(C(F)(F)F)nc1)[C@H]1CN(C(=O)C2CCN(C(=O)C3(C)CC3)CC2)C[C@@H]1c1ccc(Cl)c(Cl)c1 (racemic) | 2.8
7 | CN(C(=O)Oc1cncc(F)c1)[C@@H]1CN(C(=O)C2CCN(C(=O)C3(C)CC3)CC2)C[C@H]1c1ccc(Cl)c(Cl)c1 | 22.8
8 | Cc1ccc(OC(=O)N(C)[C@@H]2CN(C(=O)C3CCN(C(=O)C4(C)CC4)CC3)C[C@H]2c2ccc(Cl)c(Cl)c2)c(C)n1 | 38
9 | CN(C(=O)Oc1cccnc1)[C@@H]1CN(C(=O)C2CCN(C(=O)C3(C)CC3)CC2)C[C@H]1c1ccc(Cl)c(Cl)c1 | 44.9
10 | CN(C(=O)Oc1cccnc1F)[C@@H]1CN(C(=O)C2CCN(C(=O)C3(C)CC3)CC2)C[C@H]1c1ccc(Cl)c(Cl)c1 | 75.8
11 | Cc1ccc(OC(=O)N(C)[C@@H]2CN(C(=O)C3CCN(C(=O)C4(C)CC4)CC3)C[C@H]2c2ccc(Cl)c(Cl)c2)c(F)n1 | 5.5
12 | CN(C(=O)Oc1cccnc1Cl)[C@@H]1CN(C(=O)C2CCN(C(=O)C3(C)CC3)CC2)C[C@H]1c1ccc(Cl)c(Cl)c1 | 18.7
13 | CN(C(=O)Oc1cc(F)cnc1Cl)[C@@H]1CN(C(=O)C2CCN(C(=O)C3(C)CC3)CC2)C[C@H]1c1ccc(Cl)c(Cl)c1 | 21.5
